Test results taken from PubChem BioAssay (NCI).
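Growth conditions: 96-well plates. Treatment: test compound, 48 hours, 5 concentrations. Analysis: linear interpolation between bracketing concentrations; unreached endpoints set to highest concentration. At the GI50, growth is halved. TGI is the concentration that stops growth completely.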

Key:
Assay in all cases: NCI tumour cell line growth inhibition, 48 h
HCT-116 colon = system: HCT-116 colon
HS 578T breast = system: HS 578T breast
TK-10 renal = system: TK-10 renal
HCT-15 colon = system: HCT-15 colon
BT-549 breast = system: BT-549 breast
UO-31 renal = system: UO-31 renal
MDA-MB-435 = system: MDA-MB-435
SF-295 CNS = system: SF-295 CNS
NCI/ADR-RES ovarian = system: NCI/ADR-RES ovarian
SK-MEL-28 melanoma = system: SK-MEL-28 melanoma
HT29 colon = system: HT29 colon
UACC-257 melanoma = system: UACC-257 melanoma
NCI-H23 lung = system: NCI-H23 lung
SN12C renal = system: SN12C renal
HL-60(TB) leukemia = system: HL-60(TB) leukemia
MALME-3M melanoma = system: MALME-3M melanoma
OVCAR-3 ovarian = system: OVCAR-3 ovarian
MCF7 breast = system: MCF7 breast
OVCAR-4 ovarian = system: OVCAR-4 ovarian
LOX IMVI melanoma = system: LOX IMVI melanoma
HOP-62 NSCLC = system: HOP-62 NSCLC
COLO 205 colon = system: COLO 205 colon
SK-MEL-2 melanoma = system: SK-MEL-2 melanoma
RPMI-8226 leukemia = system: RPMI-8226 leukemia
T-47D breast = system: T-47D breast
SF-268 CNS = system: SF-268 CNS
SNB-19 CNS = system: SNB-19 CNS
KM12 colon = system: KM12 colon
MDA-N = system: MDA-N
CAKI-1 renal = system: CAKI-1 renal
EKVX NSCLC = system: EKVX NSCLC
SK-OV-3 ovarian = system: SK-OV-3 ovarian
SW-620 colon = system: SW-620 colon
A549 NSCLC = system: A549 NSCLC
U251 CNS = system: U251 CNS
CCRF-CEM leukemia = system: CCRF-CEM leukemia
NCI-H226 lung = system: NCI-H226 lung
786-0 renal = system: 786-0 renal
M14 melanoma = system: M14 melanoma
RXF 393 renal = system: RXF 393 renal
OVCAR-5 ovarian = system: OVCAR-5 ovarian
MOLT-4 leukemia = system: MOLT-4 leukemia
UACC-62 melanoma = system: UACC-62 melanoma
SNB-75 CNS = system: SNB-75 CNS
DU-145 prostate = system: DU-145 prostate
OVCAR-8 ovarian = system: OVCAR-8 ovarian
PC-3 prostate = system: PC-3 prostate
SK-MEL-5 melanoma = system: SK-MEL-5 melanoma
SR leukemia = system: SR leukemia
ACHN renal = system: ACHN renal
NCI-H522 lung = system: NCI-H522 lung
SF-539 CNS = system: SF-539 CNS

Question: How did the TGI (HCT-116 colon) turn out when `O=C(CCN1CCCC(O)C1COC(=O)C(O)(c1ccccc1)c1ccccc1)NCc1ccccc1` (stereo not drawn) was run?
Answer: 47 µM

Question: What about the TGI (HS 578T breast) of the same molecule?
Answer: 59 µM

Question: What about the TGI (TK-10 renal) of the same molecule?
Answer: > 100 µM

Question: And the TGI (HCT-15 colon)?
Answer: > 100 µM

Question: And the TGI (BT-549 breast)?
Answer: 50 µM

Question: What about the TGI (UO-31 renal) of the same molecule?
Answer: 49.4 µM

Question: And the TGI (MDA-MB-435)?
Answer: > 100 µM

Question: What about the TGI (SF-295 CNS) of the same molecule?
Answer: 39.1 µM

Question: And the TGI (NCI/ADR-RES ovarian)?
Answer: > 100 µM

Question: And the TGI (SK-MEL-28 melanoma)?
Answer: 30.7 µM

Question: And the TGI (HT29 colon)?
Answer: 43.2 µM

Question: What about the TGI (UACC-257 melanoma) of the same molecule?
Answer: 28.4 µM

Question: And the TGI (NCI-H23 lung)?
Answer: > 100 µM

Question: What about the TGI (SN12C renal) of the same molecule?
Answer: > 100 µM

Question: And the TGI (HL-60(TB) leukemia)?
Answer: 32.9 µM

Question: What about the TGI (MALME-3M melanoma) of the same molecule?
Answer: 31.8 µM

Question: And the TGI (OVCAR-3 ovarian)?
Answer: > 100 µM

Question: What about the TGI (MCF7 breast) of the same molecule?
Answer: > 100 µM

Question: And the TGI (OVCAR-4 ovarian)?
Answer: > 100 µM

Question: And the TGI (LOX IMVI melanoma)?
Answer: 30.4 µM

Question: What about the TGI (HOP-62 NSCLC) of the same molecule?
Answer: 36 µM

Question: What about the TGI (COLO 205 colon) of the same molecule?
Answer: 33.8 µM

Question: And the TGI (SK-MEL-2 melanoma)?
Answer: 29.4 µM

Question: What about the TGI (RPMI-8226 leukemia) of the same molecule?
Answer: 41.5 µM

Question: And the TGI (T-47D breast)?
Answer: 79.6 µM

Question: And the TGI (SF-268 CNS)?
Answer: 64.7 µM

Question: And the TGI (SNB-19 CNS)?
Answer: 99.6 µM

Question: What about the TGI (KM12 colon) of the same molecule?
Answer: 85.9 µM

Question: And the TGI (MDA-N)?
Answer: > 100 µM

Question: What about the TGI (CAKI-1 renal) of the same molecule?
Answer: > 100 µM

Question: What about the TGI (EKVX NSCLC) of the same molecule?
Answer: > 100 µM

Question: What about the TGI (SK-OV-3 ovarian) of the same molecule?
Answer: 73.7 µM

Question: What about the TGI (SW-620 colon) of the same molecule?
Answer: > 100 µM

Question: And the TGI (A549 NSCLC)?
Answer: > 100 µM

Question: What about the TGI (U251 CNS) of the same molecule?
Answer: > 100 µM

Question: And the TGI (CCRF-CEM leukemia)?
Answer: 71.8 µM

Question: And the TGI (NCI-H226 lung)?
Answer: > 100 µM

Question: What about the TGI (786-0 renal) of the same molecule?
Answer: 84.8 µM

Question: And the TGI (M14 melanoma)?
Answer: 45.8 µM

Question: And the TGI (RXF 393 renal)?
Answer: 30.5 µM

Question: And the TGI (OVCAR-5 ovarian)?
Answer: > 100 µM

Question: What about the TGI (MOLT-4 leukemia) of the same molecule?
Answer: 65.2 µM

Question: And the TGI (UACC-62 melanoma)?
Answer: 60.7 µM

Question: What about the TGI (SNB-75 CNS) of the same molecule?
Answer: 84 µM

Question: And the TGI (DU-145 prostate)?
Answer: > 100 µM

Question: What about the TGI (OVCAR-8 ovarian) of the same molecule?
Answer: > 100 µM

Question: And the TGI (PC-3 prostate)?
Answer: 67.2 µM

Question: What about the TGI (SK-MEL-5 melanoma) of the same molecule?
Answer: 29.3 µM

Question: And the TGI (SR leukemia)?
Answer: 42.4 µM

Question: What about the TGI (ACHN renal) of the same molecule?
Answer: > 100 µM

Question: What about the TGI (NCI-H522 lung) of the same molecule?
Answer: 29.7 µM

Question: What about the TGI (SF-539 CNS) of the same molecule?
Answer: 34.4 µM

Question: How did the GI50 (RPMI-8226 leukemia) turn out when `COc1ccc(O)c2c(=O)c3c(OC)cc4c(c3oc12)[C@@H]1C=CO[C@@H]1O4` was run?
Answer: 6.44 µM
